Experimental data from article PMC8481542.
The list shows a part of the results.

Protein sequences, listed by entry. Tags and fused reporters are not part of them. Lines headed by an entry give the natural chain unless they say otherwise; changes in a name come on top.
UniProt Q07914: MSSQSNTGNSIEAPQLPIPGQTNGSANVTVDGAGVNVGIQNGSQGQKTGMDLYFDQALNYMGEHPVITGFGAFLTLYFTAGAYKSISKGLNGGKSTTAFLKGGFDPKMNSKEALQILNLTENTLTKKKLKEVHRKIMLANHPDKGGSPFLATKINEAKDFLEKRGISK
UniProt Q01852: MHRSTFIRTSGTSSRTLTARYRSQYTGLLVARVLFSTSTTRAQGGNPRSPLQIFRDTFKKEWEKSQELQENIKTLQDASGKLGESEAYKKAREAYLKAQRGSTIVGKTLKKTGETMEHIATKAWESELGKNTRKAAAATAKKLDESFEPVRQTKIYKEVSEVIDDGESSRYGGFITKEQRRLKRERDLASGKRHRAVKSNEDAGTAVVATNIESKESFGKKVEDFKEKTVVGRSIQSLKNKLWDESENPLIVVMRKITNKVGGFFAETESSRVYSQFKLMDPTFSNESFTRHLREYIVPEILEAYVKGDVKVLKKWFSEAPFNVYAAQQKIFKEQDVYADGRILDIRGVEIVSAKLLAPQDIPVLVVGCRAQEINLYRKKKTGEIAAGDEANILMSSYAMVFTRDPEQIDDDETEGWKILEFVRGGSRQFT

How the values were obtained:
[1] = molecular target: Mitochondrial import inner membrane translocase subunit TIM14 (UniProt Q07914); assay: cross-link between two proteins; cross-linking mass spectrometry
[2] = molecular target: Mitochondrial import inner membrane translocase subunit TIM44 (UniProt Q01852); assay: as above

Substance | listed as a hit [1] | listed as a hit [2]
Mitochondrial import inner membrane translocase subunit TIM44, Q01852 | yes | –
Mitochondrial import inner membrane translocase subunit TIM17, P39515 | – | yes
Mitochondrial import inner membrane translocase subunit TIM23, P32897 | – | yes
